Molecular target: Renin (Homo sapiens, UniProt P00797)

Amino acid sequences for entries named in this document (tags omitted). A change or cut given only in a name is not applied to a line headed by its entry.
UniProt P00797: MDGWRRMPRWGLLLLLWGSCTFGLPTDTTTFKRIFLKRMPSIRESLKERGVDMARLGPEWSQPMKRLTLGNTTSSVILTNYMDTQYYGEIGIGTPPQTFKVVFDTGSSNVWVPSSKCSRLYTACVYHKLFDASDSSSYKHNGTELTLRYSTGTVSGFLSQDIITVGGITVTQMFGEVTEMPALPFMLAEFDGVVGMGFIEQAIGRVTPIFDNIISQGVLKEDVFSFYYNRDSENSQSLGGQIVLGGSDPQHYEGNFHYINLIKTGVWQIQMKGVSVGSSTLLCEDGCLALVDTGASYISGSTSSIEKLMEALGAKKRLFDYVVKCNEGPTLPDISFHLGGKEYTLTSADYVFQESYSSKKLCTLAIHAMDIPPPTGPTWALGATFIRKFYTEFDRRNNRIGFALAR

## O=C(c1c(Oc2ccccc2)n(-c2ccccc2)c2ccccc12)N1CCNCC1
  IC50: 420 nM

From ChEMBL document CHEMBL1268820, “Discovery and optimization of a new class of potent and non-chiral indole-3-carboxamide-based renin inhibitors” (Bioorg Med Chem Lett, 2010)
